The values that follow come from patent publication US20250188102A1, “TRIAZINE COMPOUND, INTERMEDIATE THEREOF, PREPARATION METHOD THEREFOR AND USE THEREOF” (priority 2022, published 2025).

Series [1] has as its target 3CL protease of 2019-nCoV (Severe acute respiratory syndrome coronavirus 2 (2019-nCoV) (SARS-CoV-2), UniProt P0DTD1). As to the kind of experiment: biochemical.
For series [2] the following is noted: rat.

Molecules are shown by their SMILES.

`[2H]C([2H])([2H])n1cnc(Cn2c(=O)[nH]/c(=N\c3cc4cn(C)nc4cc3Cl)n(Cc3cc(F)ccc3F)c2=O)n1` [Compound I-26] registered an IC50 in series [1] of 0.029 µM.
With `C[C@]12CC[C@H]3[C@@H](CCC4=CC(=O)CC[C@@]43C)[C@@H]1CC[C@@H]2O` [Testosterone], the Eh in series [2] stood at 99.5%.
